# High-throughput results deposited in PubChem by Broad Institute.
# The list is not random: actives were taken first. Their share in the collection is about 1.2%.
# N-glyco inh: increase of ERlucT glycosylation luciferase signal, primary screen, N-linked glycosylation inhibitor project, D54 ERlucT cells, luminescence, set 2; D54 ERlucT glycosylation luciferase reporter, 24 h; percent of 100 nM tunicamycin response; reporter increase, % at 12.5 µM; 0.23% of 360,000 active;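 active = mean luciferase reporter signal, scaled so untreated is 0 and the glycosylation-blocking control 100, at or above a set limit in every replicate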;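 also: luciferase carries N-glycosylation sites so blocking glycosylation raises the light; 0% = median of neutral control wells and 100% = median of 100 nM tunicamycin wells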
# miR122 inh: miR-122 Renilla sensor signal increase in Huh7, primary screen, miR-122 inhibitor project, cell-based, single point, plate reader; Huh7 miR-122 Renilla luciferase sensor, 48 h; neutral wells = 0, positive control = 100; activation (reporter increase), % at 12.5 µM; 0.3% of 340,000 active; AID 602342, 2012;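 active = mean replicate activation score at least 90 and every replicate individually at or above 90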;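 also: higher luciferase means less miR-122 activity so hits act as miR-122 inhibitors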
# Statin myotox sup: suppressors of statin myotoxicity in C2C12 myotubes, primary screen, cell-based, single point, plate reader | C2C12 myotubes + simvastatin, ATP luminescence, 48 h; scaled: DMSO 0, geranylgeraniol control 100 | rescue of ATP level, % at 7.49 µM | 0.78% of 330,000 active;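 active = mean ATP rescue above about 67%, or every replicate alone reaching that limit, limit read from the data, passing the limit was not always enough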;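 also: myotubes were challenged with 10 µM simvastatin during compound exposure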
# Yeast UUG start: alters start codon recognition fidelity in yeast | S. cerevisiae UUG-firefly luciferase reporter, luminescence/redox ratio | activity score, % at 18.7 µM | 350,000 compounds, 0.13% hits | AID 602363;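 active = replicate mean at a twofold rise or more, about +100% in these data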;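 note: firefly luciferase made from a UUG start codon reports start codon fidelity; reporter light over untreated wells divided by growth signal over untreated wells; some hits fall short of that in this replicate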
# Cneo AK release: Cryptococcus neoformans cell lysis inducers, primary screen, AK release luminescence, single concentration | 0.2% of 360,000 active | AID 651654, 2012 | lysis activity, % at 15 µM | C. neoformans lysis, adenylate kinase release luminescence, 4 h; normalised: neutral wells 0, clomiphene wells 100;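 active = mean lysis activity across replicates of at least 80%, whatever share of replicates individually reach that level; inactive = mean lysis activity below 80%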
#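 Signal: Adenylate kinase release luminescence | Assay system: Log-phase Cryptococcus neoformans yeast cells | Input: Cells at 5 × 10^6 per mL | Buffer or medium: Fresh YPD growth medium | Compound: Single dose | Schedule: Static 4 h at 37 °C with compound, 1 h detection | Controls: Clomiphene | Read-out: Luminescence rise reflecting yeast cell lysis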
# Active calls of the source: *; · = not tested or not shown; [ ] = remark or other dose.
# A first look (2 entries):
item	Structure	N-glyco inh	miR122 inh	Statin myotox sup
1	C[C@@H]1CN([C@@H](C)CO)C(=O)c2cc(NS(=O)(=O)c3ccc(F)cc3)ccc2O[C@H]1CN(C)Cc1ccc(-c2ccccc2)cc1	·	-26[16.7 µM]	71*
2	COc1ccc(S(=O)(=O)Nc2ccc3c(c2)CC(=O)N([C@@H](C)CO)C[C@H](C)[C@@H](CN(C)Cc2ccc4c(c2)OCO4)O3)cc1	·	5[16.7 µM]	44

item	Yeast UUG start	Cneo AK release
1	-11	19
2	3	3

# The list itself (from the top)
item	Structure	N-glyco inh	miR122 inh	Statin myotox sup
1	C[C@@H]1CN([C@@H](C)CO)C(=O)c2cc(NS(=O)(=O)c3ccc(F)cc3)ccc2O[C@H]1CN(C)Cc1ccc(-c2ccccc2)cc1	·	-26[16.7 µM]	71*
2	COc1ccc(S(=O)(=O)Nc2ccc3c(c2)CC(=O)N([C@@H](C)CO)C[C@H](C)[C@@H](CN(C)Cc2ccc4c(c2)OCO4)O3)cc1	·	5[16.7 µM]	44
3	CO[C@@H]1CN(C)C(=O)c2cc(NS(=O)(=O)c3cn(C)cn3)ccc2OC[C@H](C)N(CCC(F)(F)F)C[C@H]1C	·	·	8
4	C[C@H]1CN([C@@H](C)CO)C(=O)c2cc(NC(=O)Cc3cn(C)c4ccccc34)ccc2O[C@@H]1CN(C)S(C)(=O)=O	·	1[16.7 µM]	20
5	CC=Cc1ccc2n(c1=O)C[C@@H]1[C@@H](CO)[C@H](C(=O)NCc3ccc4c(c3)OCO4)[C@H]2N1C(=O)C1CC1 (mixture of isomers)	·	9[16.7 µM]	14
6	CC=Cc1ccc2n(c1=O)C[C@@H]1[C@@H](CO)[C@H](C(=O)NCc3ccc4c(c3)OCO4)[C@H]2N1C(=O)COC (mixture of isomers)	·	·	16
7	CC=Cc1ccc2n(c1=O)C[C@H]1[C@H](CO)[C@@H](C(=O)NCc3ccc4c(c3)OCO4)[C@@H]2N1C(=O)C1CC1 (mixture of isomers)	·	41[16.7 µM]	-8
8	CC=Cc1ccc2n(c1=O)C[C@H]1[C@H](CO)[C@@H](C(=O)NCc3ccc4c(c3)OCO4)[C@@H]2N1C(=O)COC (mixture of isomers)	·	·	5
9	Cc1cccc(S(=O)(=O)N[C@@H]2CC[C@H](CCNS(=O)(=O)c3ccccc3F)O[C@H]2CO)c1	·	·	7
10	Cc1nn(Cc2c(Cl)cccc2Cl)c(C)c1NC(=O)c1cc(C(C)C)on1	64*	-3	9
11	Cc1[nH]nc2c1C(c1ccc(-c3ccc(Cl)cc3)o1)C(C#N)=C(N)O2 (stereo not drawn)	29*	·	·
12	Cc1[nH]nc2c1C(c1ccsc1)C(C#N)=C(N)O2 (stereo not drawn)	3	0	141*

item	Yeast UUG start	Cneo AK release
1	-11	19
2	3	3
3	·	·
4	13	1
5	·	101*
6	·	-3
7	·	104*
8	·	-3
9	10	3
10	-3	2
11	·	·
12	-20	0

# Remaining list, next part
item	Structure	N-glyco inh	miR122 inh	Statin myotox sup
13	Cc1ccc(-c2ccc(C3C(C#N)=C(N)Oc4n[nH]c(C)c43)o2)cc1 (stereo not drawn)	12	9	0
14	Cc1[nH]nc2c1C(c1ccc(-c3ccccc3C#N)o1)C(C#N)=C(N)O2 (stereo not drawn)	25*	-5	-4
15	Cc1ccc(-c2[nH]nc3c2C(c2ccsc2)C(C#N)=C(N)O3)cc1 (stereo not drawn)	-2	-3	8
16	C[C@@H]1CN([C@H](C)CO)C(=O)c2cc(-c3ccc(F)cc3)cnc2O[C@@H]1CN(C)C(=O)c1ccncc1	·	-4[16.7 µM]	11
17	CCOC(=O)C(Cc1ccc(O)cc1)NC(=O)CNC(=O)C1CCCN1C(=O)OC(C)(C)C (stereo not drawn)	3	0	·
18	CN(CCOc1ccccc1)C(=O)c1cc(S(=O)(=O)N2CCOCC2)c(Cl)cc1Cl	-4	-3	7
19	C[C@H]1CN([C@@H](C)CO)C(=O)c2cc(-c3cccc(C#N)c3)cnc2O[C@@H]1CN(C)Cc1cncnc1	·	-9[16.7 µM]	-23
20	COc1ccc(-n2c(SCC(=O)N3CCCCC3)nc(O)cc2=O)cc1	1	-3	120*
21	O=C(Cc1cccs1)Nc1nnc(Cc2ccccc2)s1	-1	-3	121*
22	CCN1CCN(C(=O)c2cc3cc4cc(OC)ccc4nc3s2)CC1	-3	-2	73*
23	COc1ccc2nc3sc(C(=O)NCCN4CCc5ccccc5C4)cc3cc2c1	3	-1	-20
24	C[C@H](CO)N1C[C@H](C)[C@H](CN(C)Cc2cncnc2)Oc2ncc(-c3cccc(C#N)c3)cc2C1=O	·	8[16.7 µM]	2

item	Yeast UUG start	Cneo AK release
13	-25	-6
14	-22	-2
15	-11	1
16	·	·
17	-20	10
18	33	4
19	1	-1
20	-4	0
21	-2	-2
22	-2	2
23	-4	-1
24	-3	-2
